Data published in patent publication US20120134993A1.
Each block holds one substance with its values, some of them ahead of it.

Assays:
[1] = molecular target: VEGF-A peptide 20; assay: peptide array (JPT RepliTope), scFv on 13-mer VEGF-A peptides
[2] = molecular target: VEGF-A peptide 18; assay: as above
[3] = molecular target: VEGF-A peptide 78; assay: as above
[4] = molecular target: VEGF-A peptide 60; assay: as above
[5] = molecular target: VEGF-A peptide 75; assay: as above
[6] = molecular target: VEGF-A peptide 8; assay: as above
[7] = molecular target: VEGF-A peptide 10; assay: as above
[8] = molecular target: VEGF-A peptide 77; assay: as above
[9] = molecular target: VEGF-A peptide 23; assay: as above
[10] = molecular target: VEGF-A peptide 7; assay: as above
[11] = molecular target: VEGF-A peptide 37; assay: as above
[12] = molecular target: VEGF-A peptide 76; assay: as above
[13] = molecular target: VEGF-A peptide 19; assay: as above
[14] = molecular target: VEGF-A peptide 24; assay: as above
[15] = molecular target: VEGF-A peptide 9; assay: as above
[16] = molecular target: VEGF-A peptide 11; assay: as above
[17] = molecular target: VEGF-A peptide 39; assay: as above
[18] = molecular target: VEGF-A peptide 59; assay: as above
[19] = molecular target: human VEGF-A (human) (UniProt P15692); assay: cell-based or functional assay
[20] = molecular target: mouse VEGF-A164 (mouse) (UniProt Q00731); assay: cell-based or functional assay
[21] = molecular target: human VEGF-A (human) (UniProt P15692); assay: SPR (Biacore T100), antagonist captured via anti-His6/Myc, VEGF-A analyte, bivalent analyte model (KD1)
[22] = molecular target: human VEGF-A (human) (UniProt P15692); assay: SPR (Biacore T100), antagonist captured via anti-His6/Myc, VEGF-A analyte, bivalent analyte model (ka1)
[23] = molecular target: human VEGF-A (human) (UniProt P15692); assay: SPR (Biacore T100), antagonist captured via anti-His6/Myc, VEGF-A analyte, bivalent analyte model
[24] = molecular target: human VEGF-A (human) (UniProt P15692); assay: SPR (Biacore T100), VEGF-A immobilized, 1:1 dissociation fit
[25] = molecular target: human VEGF-A (human) (UniProt P15692); assay: SPR (Biacore T100), antagonist captured via anti-His6/Myc, VEGF-A analyte, bivalent analyte model (kd1)

Substance: c1039 scFv
percentage signal intensity of the peptide respect to overall signal intensities [1]: 3%
percentage signal intensity of the peptide respect to overall signal intensities [2]: 3%
percentage signal intensity of the peptide respect to overall signal intensities [3]: 4%
percentage signal intensity of the peptide respect to overall signal intensities [4]: 5%
percentage signal intensity of the peptide respect to overall signal intensities [5]: 7%
percentage signal intensity of the peptide respect to overall signal intensities [6]: 6%
percentage signal intensity of the peptide respect to overall signal intensities [7]: 5%
percentage signal intensity of the peptide respect to overall signal intensities [8]: 4%
percentage signal intensity of the peptide respect to overall signal intensities [9]: 9%
percentage signal intensity of the peptide respect to overall signal intensities [10]: 3%
percentage signal intensity of the peptide respect to overall signal intensities [11]: 4%
percentage signal intensity of the peptide respect to overall signal intensities [12]: 4%
percentage signal intensity of the peptide respect to overall signal intensities [13]: 5%
percentage signal intensity of the peptide respect to overall signal intensities [14]: 7%
percentage signal intensity of the peptide respect to overall signal intensities [15]: 7%
percentage signal intensity of the peptide respect to overall signal intensities [16]: 7%
percentage signal intensity of the peptide respect to overall signal intensities [17]: 3%
percentage signal intensity of the peptide respect to overall signal intensities [18]: 13%
IC50, VEGF-A165-induced luciferase reporter assay in 293/KDR/KZ136/c22 cells [19]: 0.07 nM
IC50, human VEGF-A165-stimulated HUVEC proliferation (3H-thymidine) [19]: 0.7 nM

Substance: c870 scFv
percentage signal intensity of the peptide respect to overall signal intensities [6]: 14%
percentage signal intensity of the peptide respect to overall signal intensities [9]: 32%
percentage signal intensity of the peptide respect to overall signal intensities [10]: 4%
percentage signal intensity of the peptide respect to overall signal intensities [14]: 25%
percentage signal intensity of the peptide respect to overall signal intensities [15]: 17%
percentage signal intensity of the peptide respect to overall signal intensities [16]: 6%
percentage signal intensity of the peptide respect to overall signal intensities [17]: 1%
IC50, mouse VEGF-A164-stimulated HUVEC proliferation (3H-thymidine) [20]: 0.36 nM

Kd [21]: 0.6 nM
kon [22]: 300000 M⁻¹ s⁻¹
Ka [23]: 2e+09 M⁻¹
koff [24]: 0.0002 s⁻¹
koff [25]: 0.0002 s⁻¹
Substance: c1039 scFv (scFv; other documents disagree on this pair)
